Here are results for one substance from US11634391B2 (dated 2023).

The chains behind the UniProt entries cited, without tags or fusion partners. Residues count along the entry.
UniProt Q6P988, 20-496: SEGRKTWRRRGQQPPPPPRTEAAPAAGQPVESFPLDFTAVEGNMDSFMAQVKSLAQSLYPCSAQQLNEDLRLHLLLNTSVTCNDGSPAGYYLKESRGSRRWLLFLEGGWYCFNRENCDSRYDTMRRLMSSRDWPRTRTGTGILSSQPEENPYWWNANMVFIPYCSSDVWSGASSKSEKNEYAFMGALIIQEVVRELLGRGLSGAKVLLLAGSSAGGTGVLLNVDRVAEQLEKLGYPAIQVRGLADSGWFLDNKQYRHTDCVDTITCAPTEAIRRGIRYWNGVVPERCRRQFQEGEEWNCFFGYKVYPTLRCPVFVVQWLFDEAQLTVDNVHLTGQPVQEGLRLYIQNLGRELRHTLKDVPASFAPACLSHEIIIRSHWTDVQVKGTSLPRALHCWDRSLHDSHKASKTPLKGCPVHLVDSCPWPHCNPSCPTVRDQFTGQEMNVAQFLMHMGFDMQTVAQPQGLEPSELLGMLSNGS

This experiment has as its target notum carboxyesterase enzyme (Homo sapiens (Human), UniProt Q6P988). The experiment is described as follows: Biochemical Notum Enzymatic Activity Assay (OPTS substrate, fluorescence). The conditions noted are these: 2 μM OPTS solution, 2.38 nM notum enzyme solution, 1 hour incubation at room temperature, fluorescence ex 485 nm / em 520 nm; n≥2.

As to “(1-(3,4-dichlorophenyl)-1H-1,2,3-triazol-4-yl)methanesulfonate [Compound 46]”, the IC50 (as a rule, the midpoint of a concentration-inhibition curve) was 18.5 µM.
